Columns and labels:
[1] = molecular target: hCA IX (Homo sapiens (Human), UniProt Q16790); settings: read-out: Ki (nM) hCA IX; Table 3
[2] = molecular target: hCA I (Homo sapiens (Human), UniProt P00915); settings: read-out: Ki (nM) hCA I; Table 3

By UniProt entry, the sequences of proteins in these tests, tags left out. Where a name states a change or a piece, a line headed by the entry shows the natural chain unless it says otherwise.
UniProt P00915: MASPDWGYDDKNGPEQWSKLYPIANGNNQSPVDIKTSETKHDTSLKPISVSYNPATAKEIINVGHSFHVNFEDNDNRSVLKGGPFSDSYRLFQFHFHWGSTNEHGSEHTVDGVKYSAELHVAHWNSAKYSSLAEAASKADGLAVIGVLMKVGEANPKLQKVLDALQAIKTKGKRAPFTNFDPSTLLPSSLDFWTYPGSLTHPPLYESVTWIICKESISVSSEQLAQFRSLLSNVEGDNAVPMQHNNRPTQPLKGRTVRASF

Row | Structure (SMILES) | Ki [1] [nM] | Ki [2] [nM]
1 | NS(=O)(=O)c1ccc(NC(=O)Nc2ccc(Br)cc2F)cc1 [MST-135, 4-(3-(4′-bromo-2′-fluorophenyl)ureido)benzenesulfonamide] | 6.3 | 
2 | NS(=O)(=O)c1ccc(NC(=O)Nc2cccc(Cl)c2)cc1 [MST-143, 4-(3-(3′-chlorophenyl)ureido)benzenesulfonamide] |  | 158
